In test [1] the target is GDP-bound NRAS wild-type protein (Homo sapiens, UniProt P01111). Nature of the test: Binding to NRAS by surface plasmon resonance (SPR), Single Cycle Kinetics. Conditions: ratio of KD for GDP-bound NRAS wild-type protein to KD for KRAS. On the technique in general: In SPR one partner is held on a chip, and binding of the other changes the refractive index at the surface.
The target in test [2] is GDP-bound HRAS wild-type protein (Homo sapiens, UniProt P01112). Description: Binding to HRAS by surface plasmon resonance (SPR), Single Cycle Kinetics. The note with it: ratio of KD for GDP-bound HRAS wild-type protein to KD for KRAS.
Test [3] deals with human lung cancer strain NCI-H441. Nature of the test: NCI-H441 cell proliferation inhibitory activity (CellTiter-Glo).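 Also: cell proliferation inhibition after four days measured by CellTiter-Glo.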 The note with it: read-out: NCI-H441 IC50, 4 days. (In general: ATP-based viability assays read luminescence as a measure of living cells.)
Test [4] concerns the target GDP-bound KRAS wild-type protein (Homo sapiens, UniProt P01116). Nature of the test: Binding to KRAS by surface plasmon resonance (SPR), Single Cycle Kinetics. The note with it: read-out: KRAS KD.

Chains of the proteins cited; added tags and fusions are not shown.
UniProt P01111, whole entry: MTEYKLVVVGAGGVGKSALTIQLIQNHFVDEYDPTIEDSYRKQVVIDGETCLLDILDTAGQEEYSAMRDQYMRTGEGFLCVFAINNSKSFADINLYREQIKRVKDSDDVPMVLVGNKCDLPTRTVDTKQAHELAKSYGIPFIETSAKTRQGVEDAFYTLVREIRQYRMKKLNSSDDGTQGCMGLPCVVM
UniProt P01112, whole entry: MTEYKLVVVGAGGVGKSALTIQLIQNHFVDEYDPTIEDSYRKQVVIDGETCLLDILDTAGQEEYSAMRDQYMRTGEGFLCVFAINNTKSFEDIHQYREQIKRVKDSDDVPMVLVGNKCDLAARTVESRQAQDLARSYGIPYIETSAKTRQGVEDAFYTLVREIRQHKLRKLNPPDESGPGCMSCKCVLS
UniProt P01116, whole entry: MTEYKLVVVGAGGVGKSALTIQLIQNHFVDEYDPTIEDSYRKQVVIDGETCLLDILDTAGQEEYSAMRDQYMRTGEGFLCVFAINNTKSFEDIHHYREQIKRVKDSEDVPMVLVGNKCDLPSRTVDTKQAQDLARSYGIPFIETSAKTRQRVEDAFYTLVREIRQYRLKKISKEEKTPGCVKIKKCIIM

Each structure is given as a SMILES string.

A word on the IC50: it is the concentration needed to halve the response being measured. The term Kd denotes a measure of binding affinity in units of concentration.

As to `CC[C@H](C)[C@@H]1NC(=O)[C@H](CC)N(C)C(=O)C[C@@H](C(=O)N(C)C)N(C)C(=O)[C@H](C2CCCC2)N(C)C(=O)C2(CCC2)N(C)C(=O)[C@@H]2C[C@@H](C)CN2C(=O)[C@H](CCc2cc(F)c(C(F)(F)F)c(F)c2)NC(=O)CN(C)C(=O)[C@H](Cc2ccc(C)cc2)N2CC/C=C\C[C@@H](C2=O)N(C)C(=O)CN(C)C1=O`, the “NRAS/KRAS (KD ratio)” value in test [1] is “A (a compound having 10 or more and less than 20 is denoted as A)”. In test [2], the “HRAS/KRAS (KD ratio)” value was “B (a compound having 3 or more and less than 10 is denoted as B)”.

For `CCO[C@@H]1C[C@H]2C(=O)NC3(CCC3)C(=O)N(C)[C@@H](C3CCCC3)C(=O)N3CCC[C@@H]3CC(=O)N(C)[C@@H](CC)C(=O)N[C@@H]([C@@H](C)CC)C(=O)N(C)CC(=O)N(C)[C@H]3C/C=C\CCN(C3=O)[C@@H](Cc3ccc(C(F)(F)F)cc3)C(=O)N(C)CC(=O)N[C@@H](CCc3ccc(C(F)(F)F)c(OC)c3)C(=O)N2C1`, the IC50 in test [3] was found to be 41.9 nM. Consider `CCCN1C(=O)[C@@H]2CCN2C(=O)[C@H](C)N(C)C(=O)[C@H]([C@@H](C)CC)NC(=O)[C@H](CC(C)C)N(C)C(=O)C[C@@H](C(=O)N(C)C)N(C)C(=O)[C@H](C2CCCC2)N(C)C(=O)C2(CCC2)NC(=O)[C@@H]2CCCN2C(=O)[C@H](CCc2ccc(C(F)(F)F)c(Cl)c2)NC(=O)CN(C)C(=O)[C@@H]1COCCC(C)C`, for which the Kd in test [4] was determined as 0.6 nM. Besides, the “NRAS/KRAS (KD ratio)” value in test [1] is “C (A compound having a KD ratio of 0.1 or more and less than 3 is denoted as C)”. For the same molecule, in test [2], the “HRAS/KRAS (KD ratio)” value is “C (A compound having a KD ratio of 0.1 or more and less than 3 is denoted as C)”. As to `CCO[C@@H]1C[C@H]2C(=O)NC3(CC(C)(C)C3)C(=O)N(C)[C@@H](C3CCCC3)C(=O)N(C)[C@H](C(=O)N(C)C)CC(=O)N(C)[C@@H](CC(C)C)C(=O)N[C@@H]([C@@H](C)CC)C(=O)N(C)CC(=O)N(C)[C@H]3C/C=C\CCN(C3=O)[C@@H](Cc3ccc(C(F)(F)F)cc3)C(=O)N(C)CC(=O)N[C@@H](CCc3ccc(C(F)(F)F)cc3F)C(=O)N2C1`, the IC50 in test [3] worked out at 41.7 nM. Consider `CCCOC[C@H]1C(=O)N[C@@H]([C@@H](C)CC)C(=O)N(C)CC(=O)N(C)[C@H]2C/C=C\CCN(C2=O)[C@@H](Cc2ccc(C(F)(F)F)cc2)C(=O)N(C)CC(=O)N[C@@H](CCc2cc(F)c(C(F)(F)F)c(F)c2)C(=O)N2C[C@@H](C)C[C@H]2C(=O)NC2(CCC2)C(=O)N(C)[C@@H](C2CCCC2)C(=O)N(C)[C@H](C(=O)N(C)CC)CC(=O)N1C`, for which the half-inhibitory concentration (IC50) in test [3] came to 7.8 nM. With `CCCC[C@H]1C(=O)N[C@@H]([C@@H](C)CC)C(=O)N(C)CC(=O)N(C)[C@H]2C/C=C\CCN(C2=O)[C@@H](Cc2ccc(C(F)(F)F)cc2)C(=O)N(C)CC(=O)N[C@@H](CCc2cc(F)c(Cl)c(F)c2)C(=O)N2C[C@H](OCC)C[C@H]2C(=O)NC2(CC(C)(C)C2)C(=O)N(C)[C@@H](C2CCCC2)C(=O)N(C)[C@H](C(=O)N(C)C)CC(=O)N1C`, in test [3], the IC50 stood at 6.2 nM.

As to `CCCN1C(=O)[C@@H]2CCN2C(=O)[C@H](C)N(C)C(=O)[C@H]([C@@H](C)CC)NC(=O)[C@H](CC(C)C)N(C)C(=O)C[C@@H](C(=O)N2CCOCC2)N(C)C(=O)[C@H](C2CCCC2)N(C)C(=O)C2(CCC2)NC(=O)[C@@H]2CCCN2C(=O)[C@H](CCc2ccc(C(F)(F)F)c(Cl)c2)NC(=O)CN(C)C(=O)[C@@H]1COCCC(C)C`, the “NRAS/KRAS (KD ratio)” value in test [1] is “C (A compound having a KD ratio of 0.1 or more and less than 3 is denoted as C)”. In addition, the “HRAS/KRAS (KD ratio)” value in test [2] was “C (A compound having a KD ratio of 0.1 or more and less than 3 is denoted as C)”. As for `CCC[C@H]1C(=O)N[C@@H]([C@@H](C)CC)C(=O)N(C)CC(=O)N(C)[C@H]2C/C=C\CCN(C2=O)[C@@H](Cc2ccc(C)cc2)C(=O)N(C)CC(=O)N[C@@H](CCc2ccc(C(F)(F)F)c(OC)c2)C(=O)N2C[C@H](C)C[C@H]2C(=O)NC2(CCC2)C(=O)N(C)[C@@H](C2CCCC2)C(=O)N(C)[C@H](C(=O)N(C)CC)CC(=O)N1C`, the equilibrium dissociation constant (Kd) in test [4] is 0.19 nM. For the same molecule, in test [1], the “NRAS/KRAS (KD ratio)” value is “A (a compound having 10 or more and less than 20 is denoted as A)”. The “HRAS/KRAS (KD ratio)” value in test [2] is “B (a compound having 3 or more and less than 10 is denoted as B)”. The IC50 in test [3] was determined as 26.9 nM. For `CCOC[C@H]1C(=O)N[C@@H]([C@@H](C)CC)C(=O)N(C)CC(=O)N(C)[C@H]2C/C=C\CCN(C2=O)[C@@H](Cc2ccc(C(F)(F)F)cc2)C(=O)N(C)CC(=O)N[C@@H](CCc2cc(F)c(C(F)(F)F)c(F)c2)C(=O)N2C[C@@H](C)C[C@H]2C(=O)NC2(CCC2)C(=O)N(C)[C@@H](C2CCCC2)C(=O)N(C)[C@H](C(=O)N(C)CC)CC(=O)N1C`, in test [3], the IC50 amounted to 5.1 nM. With `CCO[C@@H]1C[C@H]2C(=O)NC3(CCC3)C(=O)N(C)[C@@H](C3CCCC3)C(=O)N(C)[C@H](C(=O)N3CCOCC3)CC(=O)N(C)[C@@H](CC(C)C)C(=O)N[C@@H]([C@@H](C)CC)C(=O)N(C)CC(=O)N(C)[C@H]3CC4OC4CCN(C3=O)[C@@H](Cc3ccc(C(F)(F)F)cc3)C(=O)N(C)CC(=O)N[C@@H](CCc3ccc(C(F)(F)F)c(Cl)c3)C(=O)N2C1` (stereo partly drawn), the IC50 in test [3] is 28.3 nM. Turning to `CC[C@H](C)[C@@H]1NC(=O)[C@H](CC(C)C)N(C)C(=O)C[C@@H](C(=O)N(C)C)N(C)C(=O)[C@H](C2CCCC2)N(C)C(=O)C2(CCC2)N(C)C(=O)[C@@H]2C[C@@H](C)CN2C(=O)[C@H](CCc2cc(F)c(C(F)(F)F)c(F)c2)NC(=O)CN(C)C(=O)[C@H](Cc2ccc(C)cc2)N2CC/C=C\C[C@@H](C2=O)N(C)C(=O)CN(C)C1=O`, the IC50 in test [3] turned out to be 9.6 nM.

For the origin of these results see patent publication US20240158446A1, “CYCLIC COMPOUND HAVING SELECTIVE INHIBITORY ACTION ON KRAS OVER HRAS AND NRAS” (CHUGAI SEIYAKU KABUSHIKI KAISHA, priority 2021, published 2024).
